What was measured:
EGFR [1] = molecular target: T1, EGFR (Homo sapiens, UniProt P00533); test: EGFR tyrosine phosphorylation assay in corneal epithelial cells (hTCEpi cells); format: cell-based; conditions: 1 μM; EGF 10, 50, 100 ng/ml
T1 construct: endogenous in cells; host or cells: hTCEpi (immortalized corneal epithelial cells)
Experimental: An EGFR tyrosine assay in corneal epithelial cells is run to determine whether higher concentrations of EGF can overcome inhibition of EGFR kinase activity. […] Cells are then harvested and immunoblotted for determination of phosphorylated EGFR and total EGFR concentration which was used to determine receptor activity (IC50).
Six concentrations of a compound of Formula I or II, e.g., 0, 1 μM, 3 μM, 10 μM, 30 μM, 100 μM, or 1 μM AG1478 as a control, were used for each EGF concentration (10, 50, 100 ng/ml). Additional controls run were no compound of Formula I or II or no EGF. All experiments were repeated three times. Cells were then harvested and immunoblotted for determination of phosphorylated EGFR (tyrosine 1068 and tyrosine 1045) and total EGFR.

The chains behind the UniProt entries cited, without tags or fusion partners. Residues count along the entry.
UniProt P22607, 23-806 K650E: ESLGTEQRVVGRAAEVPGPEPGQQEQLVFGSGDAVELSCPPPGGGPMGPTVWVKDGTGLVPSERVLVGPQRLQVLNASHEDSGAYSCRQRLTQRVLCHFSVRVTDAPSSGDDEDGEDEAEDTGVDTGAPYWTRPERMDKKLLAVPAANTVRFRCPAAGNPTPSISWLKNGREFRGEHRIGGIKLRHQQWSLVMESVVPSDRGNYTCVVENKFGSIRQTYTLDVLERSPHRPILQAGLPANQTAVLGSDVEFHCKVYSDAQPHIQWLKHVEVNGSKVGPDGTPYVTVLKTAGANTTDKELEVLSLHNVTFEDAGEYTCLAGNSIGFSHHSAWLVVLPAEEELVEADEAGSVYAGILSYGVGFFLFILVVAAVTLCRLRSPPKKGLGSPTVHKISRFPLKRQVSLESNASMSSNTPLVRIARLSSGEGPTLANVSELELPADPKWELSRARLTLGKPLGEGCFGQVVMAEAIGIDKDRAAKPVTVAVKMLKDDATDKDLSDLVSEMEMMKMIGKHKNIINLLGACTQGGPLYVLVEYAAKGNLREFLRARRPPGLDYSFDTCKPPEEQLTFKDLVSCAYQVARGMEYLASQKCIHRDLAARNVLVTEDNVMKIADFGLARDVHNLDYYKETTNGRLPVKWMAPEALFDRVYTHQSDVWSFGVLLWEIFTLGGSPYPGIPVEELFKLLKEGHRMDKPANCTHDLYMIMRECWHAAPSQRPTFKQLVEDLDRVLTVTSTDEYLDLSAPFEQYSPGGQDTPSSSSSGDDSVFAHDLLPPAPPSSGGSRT

EGFR [2] = molecular target: T1, EGFR; conditions: cited from earlier work
FGFR-3 (K650E variant) = FGFR-3 (K650E variant) (Homo sapiens, UniProt P22607, K650E); test: In vitro inhibition of tyrosine kinases; format: biochemical

| SMILES | EGFR phosphorylation (EGFR [1]) | IC50 (EGFR [2]) [nM] | inhibition at 0.3 µM (FGFR-3 (K650E variant); read-out: Mean % Inhibition at 300 nM Compound-I, 300 nM (170.67 ng/mL)) [%] | inhibition at 1 µM (FGFR-3 (K650E variant); read-out: Mean % Inhibition at 1 μM Compound-I, 1 μM (568.9 ng/mL)) [%] |
| --- | --- | --- | --- | --- |
| COc1cc2ncnc(Nc3cccc(Cl)c3)c2cc1OC [AG1478] | completely blocked | 3 | – | – |
| Cl.NC(=O)c1c(OCc2c(F)cc(Br)cc2F)nsc1NC(=O)NCCCCN1CCCC1 [Compound-I, 3-[(4-bromo-2,6-difluorophenyl)methoxy]-5-[[[[4-(1-pyrrolidinyl)butyl]amino]carbonyl]amino]-4-isothiazolecarboxamide hydrochloride] | – | – | 104 | 100 |

— patent US10183014B2, “Ocular formulations for drug-delivery and protection of the anterior segment of the eye” (PanOptica, Inc., priority 2014, dated 2019)
